Source: patent US12162892B2, “CD16a binding agents and uses thereof” (KLEO PHARMACEUTICALS, INC., priority 2018, dated 2024)
Values joined by “and” are separate entries in the source; they are usually repeats but may differ in a detail not shown here. Identical values can stand only once.

Legend:
Assay in all cases: MATE ELISA, interaction with various receptors (Example 55)
Assay type in all cases: binding
Settings in all cases: three replicate values
CD16a 158V = test system: CD16a 158V
Protocol: (§1) Coat ELISA plates (Costar 3922) using Neutravidin (Thermo 31000) at 5 μg/ml in PBS (100 μl/well) for 1 hour at 37° C. Plates were washed 4 times with PBST (PBS, 0.05% Tween 20-200 μl, 1 minute/wash) then blocked using 200 μl 5% bovine serum albumin (BSA, Heat Shock, Fraction V-American Bio AB01088-00100) in PBST for 2 hours at 25° C. with moderate shaking. BSA was removed and plates were washed. Biotinylated CD16a protein (158F-Acro Biosystems #CDA-H82E8, 158V-Acro Biosystems #CDA-H82E9) at 5 nM in PBSTB (PBST+0.1% BSA) was then added (100 μl/well) and incubated for 1 hour at 25° C. with gentle shaking. Protein was removed and plates were washed. MATE labeled antibodies diluted to 1 μg/ml in PBSTB (100 μl/well) were added and incubated for 1 hour at 25° C. with gentle shaking. Wash plates. HRP labeled Mouse Anti-Human IgG, F(ab′)2 (Jackson Immuno Research 209-035-097) diluted 1:2500 in PBSTB was added (100 μl/well) and incubated for 1 hour at 25° C. with gentle shaking. Wash plates. Substrate (Super Signal ELISA Pico Chemiluminescent Substrate-Thermo 37069) was added (100 μl/well) and plates were incubated for 5 minutes at 25° C. with gentle shaking. Luminescence was then measured on the Biotek Synergy H1 microplate reader.
(§2) Using similar methods as Examples 47 or 53, interactions with a number of receptors were measured. In some embodiments, “stock” is antibody only, and “control” is an antibody that went through the same procedure except using DMSO only as opposed to a compound. When contacted with targeting moieties such as antibodies in the Examples, compounds, e.g., I-95, I-96, etc. can react through their reactive groups
(§3) [drawing 887] with reactive groups of targeting moieties (e.g., —NH2) to form conjugates by forming amide groups (—C(O)NH—). […] In some embodiments, certain compounds selectively bind to CD16a over one or more other receptors.

CD32a-R167 = test system: CD32a-R167
Protocol: as §1, §2, §3

CD38 = CD38 (Homo sapiens, UniProt P28907)
Protocol: as §1, §2, §3

CD32b = molecular target: T1, CD32b (Homo sapiens, UniProt P31994)
T1 sequence (P31994 43-310): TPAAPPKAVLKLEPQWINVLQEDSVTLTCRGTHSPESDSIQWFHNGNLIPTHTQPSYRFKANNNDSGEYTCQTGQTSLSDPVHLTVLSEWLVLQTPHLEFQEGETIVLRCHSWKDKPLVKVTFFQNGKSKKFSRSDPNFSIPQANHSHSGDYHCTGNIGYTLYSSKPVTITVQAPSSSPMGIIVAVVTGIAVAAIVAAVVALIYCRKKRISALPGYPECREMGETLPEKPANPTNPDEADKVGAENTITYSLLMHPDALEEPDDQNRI
Protocol: as §1, with “Biotinylated CD16a protein (158F-Acro Biosystems #CDA-H82E8, 158V-Acro Biosystems #CDA-H82E9) at 5 nM in PBSTB (PBST+0.1% BSA) was then added (100 μl/well) and incubated for 1 hour at 25° C. with gentle shaking.” left out
In some embodiments, “stock” is antibody only, and “control” is an antibody that went through the same procedure except using DMSO only as opposed to a compound. When contacted with targeting moieties such as antibodies in the Examples, compounds, e.g., I-95, I-96, etc. can react through their reactive groups […]

[1] = Table 12, Cetuximab with 30-, 10-, 3-fold I-95, listed as Control (Cetuximab)

MATE ELISA Results CD16a 158V (CD16a 158V; Table 11): 503765 and 480337 and 469282
MATE ELISA Results CD16a-158V (CD16a 158V; [1]): 610541 and 600643 and 584100
MATE ELISA Results CD32a R157 (CD32a-R167; Table 11): 62533 and 60692 and 58018
MATE ELISA Results CD32a-R167 (CD32a-R167; [1]): 87126 and 68955 and 66536
MATE ELISA Results CD38 (CD38; Table 11): 1022 and 422 and 368
MATE ELISA Results CD38 (CD38; [1]): 1167 and 522 and 342
MATE ELISA Results CD32b (CD32b; Table 11): 4039 and 3862 and 3812
MATE ELISA Results CD32b (CD32b; [1]): 2727 and 2683 and 2816
Substance: Cetuximab Control: "'control' is an antibody that went through the same procedure except using DMSO only as opposed to a compound"
